Source: patent US20020072076A1 (priority 1999, published 2002)

Chains of the proteins cited; added tags and fusions are not shown. Lines headed by an entry give the natural chain unless they say otherwise; changes in a name come on top.
UniProt Q92731: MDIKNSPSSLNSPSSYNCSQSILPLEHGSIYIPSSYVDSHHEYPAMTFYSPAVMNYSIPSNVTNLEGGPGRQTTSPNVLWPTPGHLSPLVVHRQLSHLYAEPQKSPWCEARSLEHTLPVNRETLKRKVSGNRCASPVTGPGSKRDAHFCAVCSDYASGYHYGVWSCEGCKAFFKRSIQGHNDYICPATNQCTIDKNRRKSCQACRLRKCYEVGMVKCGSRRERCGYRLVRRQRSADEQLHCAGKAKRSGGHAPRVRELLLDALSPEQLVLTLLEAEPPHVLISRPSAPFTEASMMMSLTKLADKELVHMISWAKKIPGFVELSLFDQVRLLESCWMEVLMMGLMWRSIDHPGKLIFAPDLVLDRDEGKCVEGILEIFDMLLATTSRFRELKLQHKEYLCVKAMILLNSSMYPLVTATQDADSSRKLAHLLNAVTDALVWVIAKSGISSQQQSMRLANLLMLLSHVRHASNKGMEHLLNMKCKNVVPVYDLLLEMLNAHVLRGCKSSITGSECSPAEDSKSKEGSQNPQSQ

Biological target: GFP/hERβ fusion protein (UniProt P42212+Q92731, F64L/H231L/S65T)
Type: cell-based, human
Conditions: 17β estradiol at final concentration 10^−7 M; 45 minutes after addition compared with immediately after (0 minute); serum-free, phenol-red-free L-15 medium; not observed in control cell expressing only GFP

Structure (SMILES): C[C@]12CC[C@@H]3c4ccc(O)cc4CC[C@H]3[C@@H]1CC[C@@H]2O [17β estradiol]
- diffusion time of the GFP/hERβ fusion protein (FCS measurement, intranuclear): increases
